From article PMC4575266 (Nature chemical biology, 2015)

Protein sequences, listed by entry. Tags and fused reporters are not part of them. Lines headed by an entry give the natural chain unless they say otherwise; changes in a name come on top. Residues count along the entry.
UniProt P35049, 25-248: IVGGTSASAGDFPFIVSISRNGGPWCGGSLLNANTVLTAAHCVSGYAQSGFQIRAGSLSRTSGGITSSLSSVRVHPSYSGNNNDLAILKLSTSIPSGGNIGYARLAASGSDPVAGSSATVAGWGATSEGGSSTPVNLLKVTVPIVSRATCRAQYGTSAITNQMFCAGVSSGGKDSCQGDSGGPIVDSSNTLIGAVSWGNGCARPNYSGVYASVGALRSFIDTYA
UniProt P30969: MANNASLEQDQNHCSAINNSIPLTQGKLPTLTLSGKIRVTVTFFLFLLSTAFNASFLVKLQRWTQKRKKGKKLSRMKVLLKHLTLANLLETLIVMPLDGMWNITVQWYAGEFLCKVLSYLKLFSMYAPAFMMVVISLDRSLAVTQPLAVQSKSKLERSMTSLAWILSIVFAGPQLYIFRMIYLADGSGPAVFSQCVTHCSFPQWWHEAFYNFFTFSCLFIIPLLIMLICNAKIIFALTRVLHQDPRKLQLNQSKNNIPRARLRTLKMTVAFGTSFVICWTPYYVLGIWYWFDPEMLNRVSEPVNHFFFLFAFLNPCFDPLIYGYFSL

What was measured:
hTTR in human serum = hTTR in human serum (Homo sapiens, UniProt P02766); details: ligand 10 μM, estimated from covalent-probe fluorescence at 3 h
[1] = rat
[2] = cited from earlier work
[3] = 5 μM, normal human serum
Trypsin = Trypsin (Fusarium oxysporum, UniProt P35049); details: trypsin in buffer, hTTR 10 μM
GnRH-R [4] = molecular target: T1, GnRH-R (Rattus norvegicus, UniProt P30969); details: control ligand
hTTR [5] = molecular target: T2, hTTR (Homo sapiens, UniProt P02766); test: biochemical
GnRH-R [6] = molecular target: T1, GnRH-R
hTTR [7] = molecular target: T2, hTTR; details: 8 240 nM, GnRH-R 6, 12, 18 nM
hTTR [8] = molecular target: T2, hTTR
[9] = male rats, single i.v. 120 picomoles/kg

Compound: O=C(O)c1ccc2nc(-c3cc(Cl)cc(Cl)c3)oc2c1 [Tafamidis, tafamidis]
- % binding to hTTR in human serum (hTTR in human serum): 45%

Compound: CC(C)C[C@H](NC(=O)CNC(=O)[C@H](Cc1ccc(O)cc1)NC(=O)[C@H](CO)NC(=O)[C@H](Cc1c[nH]c2ccccc12)NC(=O)[C@H](Cc1cnc[nH]1)NC(=O)[C@@H]1CCC(=O)N1)C(=O)N[C@@H](CCCNC(=N)N)C(=O)N1CCC[C@H]1C(=O)NCC(N)=O [GnRH, gonadotropin-releasing hormone]
- amount in plasma at 15 min after administration ([1]; i.v. bolus 3.3 μmole/kg): no measurable amount
- in vivo t1/2 [2]: 2 to 6 min
- % remaining in human serum at 2 h [3]: no detectable amounts

Compound: Arg-Gly-Lys-MCA
- protection against proteolysis in the presence of hTTR (Trypsin): no protection

Compound: [D-Trp^6]-GnRH
- effect of hTTR (1 μM) on measured binding affinity to GnRH-R (GnRH-R [4]): did not affect

Compound: Cc1n[nH]c(C)c1CCCOc1cc(OCCCc2cn(CCOCCOCCOCCC(=O)NCCCC[C@@H](NC(=O)[C@H](Cc3ccc(O)cc3)NC(=O)[C@H](CO)NC(=O)[C@H](Cc3c[nH]c4ccccc34)NC(=O)[C@H](Cc3c[nH]cn3)NC(=O)[C@@H]3CCC(=O)N3)C(=O)N[C@@H](CC(C)C)C(=O)N[C@@H](CCCNC(=N)N)C(=O)N3CCC[C@H]3C(=O)NCC(N)=O)nn2)cc(C(=O)O)c1 [Compound 8]
- pKd (hTTR [5]): 6.50
- time present in circulation ([1]; i.v. 3.3 μmole/kg): at least 12 h
- serum testosterone at 1 h (GnRH-R [6]; [9]): 35.6 ± 3.2 ng/mL
- serum testosterone at 6 h (GnRH-R [6]; [9]): 25.6 ± 2.8 ng/mL
- serum testosterone at 8 h (GnRH-R [6]; [9]): 18.9 ± 1.0 ng/mL
- serum testosterone at 12 h (GnRH-R [6]; [9]): 12.7 ± 2.3 ng/mL
- increase of testosterone above basal levels at 12 h (GnRH-R [6]; versus vehicle treated rats): ~ 16 fold
- interaction with hTTR with increasing concentrations of GnRH-R (hTTR [7]): dose-dependent decrease
- SPR response with hTTR on sensor chip, 8+holo-RBP (hTTR [8]; 8 4 μM and holo-RBP 0.2 μM pre-incubated): 74 ± 1 μRiU
- SPR response with hTTR on sensor chip, analyte alone (hTTR [8]; 8 4 μM, holo-RBP 0.2 μM): 34 ± 0.1 μRiU

pKd: −log10 of the molar value.
